In PubChem BioAssay AID1346378 (National Center for Advancing Translational Sciences (NCATS), 2018):
The entries are a selection whose mix differs from that of the whole data set. Some salts and complexes are drawn in separate pieces, as the source files them; their charges need not balance. Active and inactive are the calls of the source. Rule as the data show it: active = activity change below about -50%; inconclusive = mostly about -30% to -49%; inactive = weaker than that.

The chains behind the UniProt entries cited, without tags or fusion partners.
UniProt Q9BTU6, whole entry: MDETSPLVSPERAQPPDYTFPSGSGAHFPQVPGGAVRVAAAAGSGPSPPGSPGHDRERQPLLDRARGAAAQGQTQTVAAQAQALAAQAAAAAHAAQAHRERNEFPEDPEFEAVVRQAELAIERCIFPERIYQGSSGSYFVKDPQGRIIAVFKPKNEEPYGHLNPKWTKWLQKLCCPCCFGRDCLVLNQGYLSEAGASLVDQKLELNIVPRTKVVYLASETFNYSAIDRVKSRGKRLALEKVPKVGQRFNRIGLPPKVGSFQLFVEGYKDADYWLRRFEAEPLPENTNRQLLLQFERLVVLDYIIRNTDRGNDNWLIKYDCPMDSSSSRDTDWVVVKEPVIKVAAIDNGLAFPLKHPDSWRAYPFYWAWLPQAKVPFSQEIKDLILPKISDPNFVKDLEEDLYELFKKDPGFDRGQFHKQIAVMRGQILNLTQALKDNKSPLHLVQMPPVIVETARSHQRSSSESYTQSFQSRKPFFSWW

Biological target: Phosphatidylinositol 4-kinase type 2-alpha (Homo sapiens) (UniProt Q9BTU6)
Test: qHTS for small molecular inhibitors of PI4K2A;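 also: -100% = wells without enzyme as full effect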
Details: purified PI4K2A, ADP-Glo luminescence, 1 h; at 76.9 µM; stronger effect = lower value
Method in brief: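 PI4K2A activity was measured by ADP-Glo luminescence: enzyme (4 ug/mL stock) and phosphatidylinositol (1.2 mM stock) in Tris pH 7.5/MgCl2/EGTA/Triton X-100 buffer were reacted with ATP (300 microM stock) for one hour at ambient temperature.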

Structure (SMILES) | activity change, negative = inhibition
O=C1CCN(Cc2ccccc2)CC1 | inactive: 0.373%
O=C(NCC1(N2CCOCC2)CCCCC1)c1ccc(Cl)cc1 | inactive: -1.66%
CC(C)(C)n1nnnc1C(c1ccccc1)N1CCC(n2c(=O)[nH]c3ccccc32)CC1 (stereo unspecified) | inactive: 1.78%
CCOc1ccc(C)cc1CN(CCCl)CCCl | inactive: 3.13%
O=C(NCC1(N2CCOCC2)CCCCC1)c1cc(=O)[nH]c2ccccc12 | inactive: 2.92%
COc1cc(C(=O)NCC2(N3CCCCC3)CCCCC2)ccc1OC(F)F | inactive: 1.1%
COc1ccc(NC2CCN(C(=O)OC(C)(C)C)CC2)cc1 | inactive: -0.31%
CC(C)c1ccc(C(=O)NCC2(N3CCOCC3)CCCCC2)cc1 | inactive: 1.74%
CN1CCN(CCOC(=O)C(O)(c2ccccc2)c2ccccc2)CC1 | inactive: 2.23%
CCCCn1nnnc1C(c1cccc2ccccc12)N1CCC(n2c(=O)[nH]c3ccccc32)CC1 (stereo unspecified) | inactive: -1.26%
O=[N+]([O-])c1cc([N+](=O)[O-])c(NCC2CCS(=O)(=O)C2)c([N+](=O)[O-])c1 (stereo unspecified) | inactive: -2.03%
O=C(NCC1(N2CCCCC2)CCCCC1)c1cccc(C(F)(F)F)c1 | inactive: -4.86%
CCCOc1cccc(C(=O)NCC2(N3CCOCC3)CCCCC2)c1 | inactive: 1.72%
O=c1[nH]c2ccccc2n1C1CCN(C(c2ccccc2OC(F)(F)F)c2nnnn2C2CCCC2)CC1 (stereo unspecified) | inactive: 2.97%
N#CC1(Nc2ccccc2)CCN(CCc2ccccc2)CC1 | inactive: 8.75%
CCN1CCC(Nc2ccc(Cl)cc2)CC1 | inactive: -2.37%
O=C(NCC1(N2CCCCC2)CCCCC1)c1cccc([N+](=O)[O-])c1 | inactive: 5.74%
CCOc1ccc(C(=O)NCC2(N3CCOCC3)CCCCC2)cc1 | inactive: -3.93%
CSc1ccc(C(=O)NCC2(N3CCOCC3)CCCCC2)cc1 | inactive: 6.82%
O=C(NCC1(N2CCCCC2)CCCCC1)c1ccc(OC(F)F)cc1 | inactive: 7.81%
CC(C)(C)n1nnnc1C(c1ccccc1OC(F)(F)F)N1CCC(n2c(=O)[nH]c3ccccc32)CC1 (stereo unspecified) | inactive: -4.55%

Structure (SMILES) | activity change, negative = inhibition
COc1ccc(C(c2nnnn2C2CCCC2)N2CCC(n3c(=O)[nH]c4ccccc43)CC2)cc1 (stereo unspecified) | inactive: -1.43%
O=[N+]([O-])c1cc([N+](=O)[O-])c(Nc2ccc(Cl)cc2)c([N+](=O)[O-])c1 | inactive: -4.83%
O=C(NCC1(N2CCOCC2)CCCCC1)c1ccccc1Br | inactive: -1.24%
CCCOc1ccc(C(=O)NCC2(N(C)C)CCCCC2)cc1OC | inactive: -1.3%
CCCCOc1ccccc1C(=O)NCC1(N2CCOCC2)CCCCC1 | inactive: -2.74%
Cc1ccc(C(=O)NCC2(N(C)C)CCCCC2)o1 | inactive: -0.253%
O=C(OC1CN2CCC1CC2)c1ccc([N+](=O)[O-])cc1 (stereo unspecified) | inactive: 9.55%
CN1CCC(Nc2cccc(F)c2)CC1 | inactive: 0.538%
O=C(NCC1(N2CCCCC2)CCCCC1)c1cncc(Br)c1 | inactive: -1.65%
COc1ccc2c(c1O)-c1c(O)c(OC)cc3c1[C@H](C2)[N+](C)(C)CC3.O=[N+]([O-])c1cc([N+](=O)[O-])c([O-])c([N+](=O)[O-])c1[O-] | inactive: -4.49%
O=C(NCC1(N2CCOCC2)CCCCC1)c1cc(F)c(F)cc1Cl | inactive: -2.32%
CCC(c1nnnn1C(C)(C)C)N1CCC(n2c(=O)[nH]c3ccccc32)CC1 (stereo unspecified) | inactive: -0.446%
COc1cc(OC)c(C(=O)NCC2(N(C)C)CCCCC2)cc1OC | inactive: -9.75%
CCCCn1nnnc1C(c1ccnc2ccccc12)N1CCC(n2c(=O)[nH]c3ccccc32)CC1 (stereo unspecified) | inactive: -5.73%
CCCCn1nnnc1C(c1ccccc1OC(F)(F)F)N1CCC(n2c(=O)[nH]c3ccccc32)CC1 (stereo unspecified) | inactive: -2.72%
CC(C)c1ccc(NC2CCN(C(=O)OC(C)(C)C)CC2)cc1 | inactive: -12.9%
CN(C)c1cccc(C(=O)NCC2(N3CCCCC3)CCCCC2)c1 | inactive: -3.03%
O=[N+]([O-])c1cc([N+](=O)[O-])c(OC2CCCCC2O)c([N+](=O)[O-])c1 (stereo unspecified) | inactive: 2.55%
COc1ccc(CN(CCCl)CCCl)cc1Cl | inactive: -4.55%
COC(=O)C1(Nc2ccccc2)CCN(Cc2ccccc2)CC1 | inactive: 0.494%
